According to patent publication US20110263650A1 (priority 2007, published 2011):

Test system: KB-V1 multidrug-resistant subclone of KB-3-1 (DSMZ ACC 149)
Experiment: Growth inhibition assay (MTT), KB-V1 with and without verapamil

For `CC[C@H](C)[C@H](NC(=O)[C@H]1CCCCN1C)C(=O)N(COC(=O)CC(C)C)[C@H](C[C@@H](OC(C)=O)c1nc(C(=O)N[C@@H](Cc2ccccc2)C[C@H](C)C(=O)O)cs1)C(C)C` [Analogue 1, Tubulysin D, reference compound], the “IC50 KB-V1 w/verapamil” value (verapamil 5 μg/ml) was 0.025 ng/mL (≈ 0.0302 nM) and the “IC50 KB-V1 w/o verapamil” value (without verapamil) was 0.23 ng/mL (≈ 0.278 nM).

Values after ≈ are worked out from the molar mass of the structure shown.
